# From patent publication US10933053B2, “Treating infections with ceftolozane/tazobactam in subjects having impaired renal function” (MERCK SHARP & DOHME CORP., priority 2013, dated 2021)
# System: baseline uropathogens (complicated urinary tract infections)
# Test: Phase 3 study of complicated urinary tract infections incl. pyelonephritis: composite cure / microbiological eradication at test-of-cure
# Assay type: in vivo, human
# Settings: ME population
# Text: The primary efficacy endpoint was the composite microbiological and clinical cure response at the test-of-cure (TOC) visit in the microbiologically modified intent-to-treat (mMITT) population, which included all patients who received study medication and had at least 1 baseline uropathogen. The key secondary efficacy endpoint was the composite microbiological and clinical cure response at the TOC visit in the microbiologically evaluable (ME) population, which included protocol-adherent mMITT patients with a urine culture at the TOC visit.
compound,measurement,setting,value
"C[C@H]1COc2c(N3CCN(C)CC3)c(F)cc3c(=O)c(C(=O)O)cn1c23 [Levofloxacin, levofloxacin]",Per pathogen microbiological eradication rate,Escherichia coli (CTX-M-14/15 ESBL producing),(52.0) %
same,Per pathogen microbiological eradication rate,Escherichia coli (ESBL-producing),(50) %
same,Per pathogen microbiological eradication rate,Klebsiella pneumoniae (CTX-M-15 ESBL producing),(25.0) %
same,Per pathogen microbiological eradication rate,Klebsiella pneumoniae (ESBL-producing),(29) %
